Measured values reported in US20030219400A1 (priority 2002, published 2003).

Tested on: patients coinfected with Babesia microti and Borrelia burgdorferi

SMILES: O=C1C(O)=C([C@H]2CC[C@H](c3ccc(Cl)cc3)CC2)C(=O)c2ccccc21 [atovaquone]
- adverse effects (first few weeks of atovaquone therapy): no adverse effects noted other than mild worsening of symptoms
- patients who stopped treatment at 9 weeks, feeling no improvement (in vivo): 1 patient
- patients with complete resolution of longstanding symptoms (in vivo): 5 patients
